Assay results from ChEMBL document CHEMBL4196129, “Structural Optimization and Characterization of Potent Analgesic Macrocyclic Analogues of Neurotensin (8-13)” (J Med Chem, 2018).

Sequences of proteins named here, by UniProt entry; tags and fusion partners are left off.
UniProt P30989, whole entry: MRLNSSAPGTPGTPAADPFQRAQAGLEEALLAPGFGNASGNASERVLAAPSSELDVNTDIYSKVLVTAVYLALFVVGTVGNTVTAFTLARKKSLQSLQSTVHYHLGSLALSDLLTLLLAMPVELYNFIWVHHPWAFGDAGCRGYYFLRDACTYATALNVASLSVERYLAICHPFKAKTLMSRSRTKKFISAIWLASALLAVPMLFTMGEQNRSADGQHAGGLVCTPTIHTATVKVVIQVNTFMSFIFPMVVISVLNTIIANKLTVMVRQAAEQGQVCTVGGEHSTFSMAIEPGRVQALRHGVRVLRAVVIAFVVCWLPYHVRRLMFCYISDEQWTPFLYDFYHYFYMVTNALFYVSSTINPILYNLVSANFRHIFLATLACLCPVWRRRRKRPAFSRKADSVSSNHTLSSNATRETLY

Legend:
[1] = target: T1, Neurotensin receptor type 1 (Homo sapiens, UniProt P30989); test: Agonist activity at GFP10/beta-arrestin2-Rluc2 fused human NTS1 expressed in CHO-K1 cell membranes assessed as beta-arrestin2 recruitment after 20 mins by BRET assay; format: functional, cell-based
[2] = target: T1, Neurotensin receptor type 1; test: Agonist activity at GFP10/beta-arrestin1-Rluc2 fused human NTS1 expressed in CHO-K1 cell membranes assessed as beta-arrestin1 recruitment after 20 mins by BRET assay; format: functional, cell-based
[3] = Half life in rat plasma by UPLC-MS analysis; format: ADME, cell-free
Procedure, shortened: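 Quenched with acetonitrile/ethanol (1:1) plus 0.5% nicotinamide, centrifuged and filtered. Parent peptide measured by UPLC-MS; half-life from a one-phase decay fit.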

| Compound | EC50 [1] [nM] | EC50 [2] [nM] | half-life [3] [min] |
| --- | --- | --- | --- |
| CC[C@H](C)[C@H](NC(=O)[C@@H]1Cc2ccc(O)c(c2)CC=CCN(S(=O)(=O)c2ccccc2[N+](=O)[O-])CCCC[C@H](N)C(=O)N[C@@H](CCCCN)C(=O)N2CCC[C@H]2C(=O)N1)C(=O)N[C@@H](CC(C)C)C(=O)O | 92 | – | – |
| CC[C@H](C)[C@H](NC(=O)[C@@H]1Cc2ccc(O)c(c2)CC=CCCNCCCC[C@H](N)C(=O)N[C@@H](CCCCN)C(=O)N2CCC[C@H]2C(=O)N1)C(=O)N[C@@H](CC(C)C)C(=O)O | – | 24 | – |
| CC[C@H](C)[C@H](NC(=O)[C@@H]1Cc2ccc(O)c(c2)CC=CCNCC[C@H](N)C(=O)N[C@@H](CCCCN)C(=O)N2CCC[C@H]2C(=O)N1)C(=O)N[C@@H](CC(C)C)C(=O)O | 19 | 35 | – |
| CC[C@H](C)[C@H](NC(=O)[C@@H]1Cc2ccc(O)c(c2)CC=CCCCNCCCC[C@H](N)C(=O)N[C@@H](CCCCN)C(=O)N2CCC[C@H]2C(=O)N1)C(=O)N[C@@H](CC(C)C)C(=O)O | 24 | 50 | – |
| CC[C@H](C)[C@H](NC(=O)[C@@H]1Cc2ccc(O)c(c2)CC=CCNCCCC[C@H](N)C(=O)N[C@@H](CCCCN)C(=O)N2CCC[C@H]2C(=O)N1)C(=O)N[C@@H](CC(C)C)C(=O)O | 21 | – | 19 |
| CC[C@H](C)[C@H](NC(=O)[C@@H]1Cc2ccc(O)c(c2)CC=CCNCCCC[C@@H](N)C(=O)N[C@@H](CCCCN)C(=O)N2CCC[C@H]2C(=O)N1)C(=O)N[C@@H](CC(C)C)C(=O)O | 201 | – | – |
